Measurements reported in patent publication US4746675A, “External pharmaceutical composition” (Teijin Limited, priority 1983, dated 1988).

Conditions: rat, in vivo
Protocol: An ointment was prepared from 1 part by weight of indomethacin, 10 parts by weight of compound (168) and 89 parts by weight of a hydrophilic ointment (composed of 250 parts of white Vaseline, 220 parts by weight of stearyl alcohol, 120 parts by weight of propylene glycol, 15 parts by weight of sodium laurylsulfate, 0.25 part by weight of ethyl p-hydroxybenzoate, 0.15 part by weight of propyl p-hydroxybenzoate and a small amount of purified water). The back of a rat (body weight about 250 g) was cut by an electric hair-clipper, and 100 mg of the resulting ointment was applied by a finger to a circular unhaired portion, 4 cm in diameter. The blood was drawn from the tail of the rat periodically, and the concentration of indomethacin in the blood was determined periodically by high-performance liquid chromatography.
Various ointments were prepared from 1 part by weight of indomethacin, 10 parts of each of various penetration enhancers shown in Table 2 and the hydrophilic ointment, and tested as in Example 1.

Concentration of indomethacin in the blood (60 min): 1400 ng/mL
Concentration of indomethacin in the blood (180 min): 2100 ng/mL
Concentration of indomethacin in the blood (300 min): 1900 ng/mL
Concentration of indomethacin in the blood (420 min): 1800 ng/mL
Concentration of indomethacin in the blood (1440 min): 600 ng/mL
Substance: monooleyl glycerin ester

Where two headings read alike, the source gives them in different places.
